The target in the test is T1, Peroxisome proliferator-activated receptor alpha (Homo sapiens, UniProt Q07869).
T1 sequence (Q07869 whole entry): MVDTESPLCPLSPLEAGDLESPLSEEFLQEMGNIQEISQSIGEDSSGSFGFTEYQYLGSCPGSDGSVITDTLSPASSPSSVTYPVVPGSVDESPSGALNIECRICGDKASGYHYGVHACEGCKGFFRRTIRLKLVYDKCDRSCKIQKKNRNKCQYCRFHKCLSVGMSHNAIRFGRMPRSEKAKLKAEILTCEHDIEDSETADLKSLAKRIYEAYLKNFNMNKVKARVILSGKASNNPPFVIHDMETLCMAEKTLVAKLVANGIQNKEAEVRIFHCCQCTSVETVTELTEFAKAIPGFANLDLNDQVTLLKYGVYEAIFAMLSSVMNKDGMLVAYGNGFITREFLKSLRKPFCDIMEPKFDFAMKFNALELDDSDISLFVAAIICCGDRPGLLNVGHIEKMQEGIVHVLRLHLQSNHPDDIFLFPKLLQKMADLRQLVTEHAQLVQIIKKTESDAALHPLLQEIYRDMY

The term pEC50 denotes −log10 of the EC50, conventionally taken in molar units.

Each structure is given as a SMILES string. pEC50: −log10 of the molar value.

For the compound `Cc1nc(-c2ccc(C(F)(F)F)cc2)sc1C(=O)NCc1ccc(OC(C)(C)C(=O)O)cc1` [GW590735], the pEC50 is 8.40.

The values are drawn from ChEMBL document CHEMBL1141367, “Substituted 2-[(4-aminomethyl)phenoxy]-2-methylpropionic acid PPARalpha agonists. 1. Discovery of a novel series of potent HDLc raising agents” (J Med Chem, 2007).
